In published antibiotic growth screens (doi:10.1038/s41589-023-01349-8):
The list shows a part of the results.

Tested on: A. baumannii ATCC 17978
Assay: relative growth (fraction of control); higher = less inhibition
Details: 50 µM

SMILES | relative growth
O=C(Nc1ccc(-c2ccccc2)cc1)[C@H]1C[C@@H]1c1ccccc1 | 0.867
CCCCC(=O)c1ccc(O)cc1 | 0.808
COCCCOc1cc(C[C@@H](C[C@H](N)[C@@H](O)C[C@H](C(=O)NCC(C)(C)C(N)=O)C(C)C)C(C)C)ccc1OC.O=C(O)/C=C/C(=O)O | 0.871
COCc1n[nH]c(C)c1C(=O)O | 1.21
CC(C)NC(=O)N[C@H]1C=C[C@@H](CC(=O)NCCCN(C)C)O[C@@H]1CO | 1.08
O=S(=O)(NCC[C@@H]1CC[C@H](NS(=O)(=O)c2cccc(Cl)c2)[C@@H](CO)O1)c1cccc(F)c1 | 1.1
O=C(O)c1ccccc1C(=O)Nc1ccc(S(=O)(=O)Nc2nccs2)cc1 | 0.982
CN1C(=O)c2cc(NC(=O)c3cscn3)ccc2OC[C@@H]2O[C@H](CC(=O)N3CCOCC3)CC[C@@H]21 | 1.04
Cc1cc(C(=O)O)c(=O)[nH]c1C | 1.1
C#C[C@]1(O)CCC2C3CCC4=C(CCC(=O)C4)C3CC[C@@]21C (some centres undefined) | 1.04
C[C@@H]1CC2C3CCC4=CC(=O)C=C[C@]4(C)[C@@]3(Cl)[C@@H](O)C[C@]2(C)[C@@]1(OC(=O)c1ccco1)C(=O)CCl (some centres undefined) | 1.16
Nc1ccc(C(=O)[O-])cc1.[K+] | 1.2
CCCNC(=O)Nc1ccc2c(c1)OC[C@H](C)N(C(=O)C1CCOCC1)C[C@H](C)[C@@H](OC)CN(C)C2=O | 1.24
Fc1cccc2c(Cl)ccnc12 | 0.841
CC1CC(OC(=O)c2ccccc2O)CC(C)(C)C1 (centres undefined) | 1.22
COc1ccccc1NCC(=O)NN | 0.988
C[C@@H]1CN([C@@H](C)CO)S(=O)(=O)c2ccc(Br)cc2O[C@@H]1CN(C)C(=O)c1cnccn1 | 1.12
COC(=O)C1=C(C#N)NC(C)=C(C(=O)OC(C)C)C1c1cccc([N+](=O)[O-])c1 (centres undefined) | 1.21
COCC(=O)N(C)C[C@@H]1Oc2cc(C#CCN(C)C)ccc2S(=O)(=O)N([C@H](C)CO)C[C@H]1C | 0.99
CCCNC(=O)N(C)C[C@H]1Oc2cc(C#Cc3cccc(F)c3)ccc2S(=O)(=O)N([C@H](C)CO)C[C@@H]1C | 0.963
N[C@H](Cc1c[nH]c2ccccc12)C(=O)O | 1.15
CN1CCN(C(=O)C[C@@H]2C=C[C@@H](NC(=O)Cc3ccccn3)[C@H](CO)O2)CC1 | 1.14
CCN1CCN(C(=O)/C=C\C(=O)O)CC1 | 1.07

SMILES | relative growth
C[C@@H]1CN([C@@H](C)CO)S(=O)(=O)c2ccc(C#CC(C)(C)O)cc2O[C@H]1CN(C)Cc1ccccc1 | 0.637
CN(CCO)S(=O)(=O)c1cccc(C(=O)O)c1 | 0.902
CC[n+]1oc(-c2ccccc2)cc1C | 0.95
CN1CCN(C(=O)C[C@@H]2CC[C@@H]3[C@H](COC[C@@H](O)CN3C(=O)C3CC3)O2)CC1 | 0.979
C/C(=N\N)c1nnn(-c2nonc2N)c1C | 1.01
CC(C)[N+](C)(CCOC(=O)C1c2ccccc2Oc2ccccc21)C(C)C.[Br-] | 0.968
O=C(CCCN1CCN(c2ccccn2)CC1)c1ccc(F)cc1 | 0.876
COC(=O)CCCCCCC(=O)N/N=C/[C@H](O)[C@H](O)[C@@H](O)[C@H](C)O | 1.12
COc1ccc(NC(=O)N2C[C@@H](O)COC[C@H]3O[C@@H](CC(=O)NCc4ccccc4OC)CC[C@@H]32)cc1 | 1.09
C[N+](C)(C)CCCCNC(=O)[C@H]1C[C@H]2C(=O)N[C@@H](CCCC[N+](C)(C)C)C(=O)N2[C@H]1c1cccc(OCCO)c1 | 1.05
O=C(C[C@@H]1CC[C@H]2[C@@H](COC[C@@H](O)CN2S(=O)(=O)c2cccc(Cl)c2)O1)NCCCN1CCOCC1 | 1.07
Nc1c2ccccc2nc2ccccc12 | 0.255
Cc1noc(C)c1NC(=O)N[C@H]1C=C[C@H](CC(=O)N2CCN(C)CC2)O[C@@H]1CO | 1.05
CN(C)c1nc(Oc2ccc(=O)n(C)n2)nc(N(C)C)n1 | 0.935
COCCOC(=O)N1C(=O)[C@@]2(c3cc(C#CCC(C(=O)OC)C(=O)OC)ccc31)[C@H](C(=O)N1CCCCCCC1)[C@H]1C(=O)O[C@H](c3ccccc3)[C@H](c3ccccc3)N1[C@@H]2c1ccc(O)cc1 | 1.02
CC(C)NC(=O)N[C@@H]1C=C[C@H](CC(=O)NCCCN(C)C)O[C@H]1CO | 0.98
CCCNC(=O)N1C[C@@H](O)COC[C@H]2O[C@H](CC(=O)NCc3ccncn3)CC[C@@H]21 | 0.859
COc1ccc(CCN(C)CCCC(C#N)(c2ccc(OC)c(OC)c2)C(C)C)cc1OC.Cl (centres undefined) | 0.945
CCCNC(=O)N1C[C@@H](C)[C@@H](OC)CN(C)C(=O)c2ccc(NS(=O)(=O)CC(F)(F)F)cc2OC[C@H]1C | 0.957
Cc1ccc(=O)n(-c2ccccc2)c1 | 0.783
NCC[C@H]1CC[C@H](NC(=O)NC2CCCCC2)[C@@H](CO)O1 | 0.924
O=S(=O)(Cc1nn[nH]n1)c1ccccc1 | 0.975
O=C(C[C@@H]1CC[C@@H]2[C@H](COC[C@H](O)CN2S(=O)(=O)c2ccccc2Cl)O1)NCc1ccccc1Cl | 0.94

SMILES | relative growth
CC1(C)OCC(CO)([N+](=O)[O-])CO1 | 0.969
CSC(=N)Nc1csc(C(F)(F)F)c1-c1ccccc1 | 0.953
CNc1ncnc(Cl)c1N | 1.03
NNC(=O)[C@H]1C[C@H]2C[C@@H]1C[C@@H]2C(=O)NN | 0.984
CN[C@H]1CC[C@@H](c2ccc(Cl)c(Cl)c2)c2ccccc21.Cl | 0.141
COC(=O)CN1C(=O)CSc2ncccc21 | 1.01
Cc1ccc(C(=O)NCCN2CCNC2=O)cc1 | 1.02
O=C(C[C@H]1C=C[C@@H](NS(=O)(=O)c2ccccc2)[C@H](CO)O1)NCc1ccncn1 | 1.12
Cc1ccc(Nc2c(-c3ccccc3)nc3ccccn23)cc1 | 0.898
CN(CC(N)=O)S(=O)(=O)c1ccc(F)cc1 | 1.01
CC(=O)O[C@@H]1[C@@H](O)C[C@@]2(C)[C@@H](CC[C@@H](C)[C@@]23Cc2c(O)cc4c(c2O3)CN([C@@H](CCC(=O)O)C(=O)O)C4=O)C1(C)C | 1.15
CCC(=O)Nc1nc2[nH]c(COC)cc(=O)n2n1 | 0.937
O=C(O)c1cc(S(=O)(=O)NCCN2CCNC2=O)ccc1O | 0.985
N#CCC(=O)NN | 0.917
COCC(=O)N1C[C@H](C)[C@@H](OC)CN(C)C(=O)c2ccc(NC(=O)Nc3cccc(F)c3)cc2OC[C@H]1C | 0.876
C=CC[C@@H](CC(=O)N(CCO)Cc1ccccc1)C(=O)N[C@H](COC(=O)[C@@H](CC=C)Cc1ccc(F)cc1)C(C)(C)C | 0.757
C[C@@H]1O[C@H](Oc2cc(O)c3c(=O)c(O[C@H]4O[C@H](CO)[C@H](O)[C@H](O)[C@@H]4O[C@@H]4O[C@H](C)[C@@H](O)[C@H](O)[C@@H]4O)c(-c4ccc(O)c(O)c4)oc3c2)[C@@H](O)[C@H](O)[C@@H]1O | 0.979
CC[C@H]1COCCC(=O)N1 | 1.09
Cc1cc(O)cc(C)c1Cl | 0.156
C[C@H]1CN([C@@H](C)CO)C(=O)c2cc(C#CCN(C)C)cnc2O[C@H]1CN(C)C(=O)c1ccc2c(c1)OCO2 | 1.2
COC[C@@H]1CN(C(=O)[C@H]2CCCN2C)N1 | 0.898
CNC(=O)C[C@H]1CC[C@@H]2[C@H](COC[C@@H](O)CN2C(=O)Nc2ccc3c(c2)OCO3)O1 | 0.966
Cc1ccc(S(=O)(=O)N[C@H]2CC[C@@H](CCNC(=O)CN3CCOCC3)O[C@H]2CO)cc1 | 0.977

SMILES | relative growth
Oc1cccc(O)c1 | 1.04
C[C@H]1CN([C@@H](C)CO)S(=O)(=O)c2ccc(C#CC3(O)CCCC3)cc2O[C@H]1CN(C)C(=O)c1cccnc1 | 0.815
C[C@H](CO)N1C[C@H](C)[C@H](CN(C)C(=O)C2CCCCC2)Oc2cc(C#Cc3ccncc3)ccc2S1(=O)=O | 0.893
COC1=CC(=O)c2ccccc2C1=O | 0.421
C[C@H]1O[C@@H](OC[C@H]2O[C@@H](OC[C@]3(C)[C@H]4CC[C@@]5(C)[C@H](CC[C@H]6C7=CC(C)(C)CC[C@]7(C(=O)O)CC[C@@]65C)[C@@]4(C)CC[C@@H]3O)[C@@H](O)[C@@H](O)[C@@H]2O)[C@@H](O)[C@@H](O)[C@@H]1O | 0.912
COCC#Cc1ccc2c(c1)O[C@H](CN(C)S(=O)(=O)c1cccc(F)c1)[C@H](C)CN([C@@H](C)CO)S2(=O)=O | 0.969
Cn1cnc(S(=O)(=O)N[C@@H]2CC[C@@H](CC(=O)N3CCN(c4ccccc4)CC3)O[C@H]2CO)c1 | 1.06
CC1(C)S[C@@H]2[C@H](NC(=O)C3(N)CCCCC3)C(=O)N2[C@H]1C(=O)O | 1.1
Cn1c(=O)c2c(nc(N3CCOCC3)n2CCN)n(C)c1=O | 1.1
CCSC1=C(C#N)C(=O)N[C@@H](CO)S1 | 1.02
O=c1cc(-c2ccccc2O)oc2ccc(O)cc12 | 1
COCC#Cc1ccc2c(c1)O[C@@H](CN(C)C(=O)C1CCCCC1)[C@@H](C)CN([C@H](C)CO)S2(=O)=O | 0.979
COCCNC(=O)C[C@H]1CC[C@@H]2[C@H](COC[C@@H](O)CN2C(=O)Nc2ccc3c(c2)OCO3)O1 | 1.05
COC(=O)c1c(C)cc(OC)cc1O | 0.832
C=CCOC(=O)[C@@H]1[C@H]2C(=O)O[C@H](c3ccccc3)[C@H](c3ccccc3)N2[C@H](c2ccc(OCCOC(=O)[C@H]3C[C@H]4C(=O)NCC(=O)N4[C@H]3c3ccc(O)cc3)cc2)[C@@]12C(=O)Nc1ccc(I)cc12 | 1.37
NC(=O)CC[C@H](N)C(=O)O | 1.1
O=C1c2ccccc2C(=O)C1c1ccc(Br)cc1 | 1.14
O=C(N[C@@H]1CC[C@H](CCNS(=O)(=O)c2ccc(F)cc2)O[C@H]1CO)C1CC1 | 1.05
Cc1ccc2nc(-c3ccco3)[nH]c2c1 | 0.926
CCCCC/C=C\C/C=C\C/C=C\CCCCCCC(=O)O | 1.26
